## Experimental Henry's law constant values from OPERA 2.9

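The numbers are reported measurements, compiled and curated for the OPERA QSAR suite. The files give a single number for a compound and property, which may rest on several reports. Conditions of the individual experiments are not part of the data. The measured form (salt, isomer or mixture) is not always the one drawn. Some entries may be limits or estimates that an upstream database listed as plain numbers.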

Henry's law constant (air-water partitioning) is log10 of atm·m3/mol, nominally at 25 °C. "n/a" marks a cell with nothing listed here. "via" names the databases from which the curators took the value.

compound,name,log Henry constant (log10 atm·m3/mol),via
CC1(C)[C@H](C(=O)O[C@H](C#N)c2cccc(Oc3ccccc3)c2)[C@@H]1/C=C(\Cl)C(F)(F)F,n/a,-6.705,OCHEM
O=C(NC(=O)c1c(F)cccc1F)Nc1cc(Cl)c(F)c(Cl)c1F,Teflubenzuron,-7.162,OCHEM
O=C1c2ccccc2C(=O)C1C(=O)C(c1ccccc1)c1ccccc1,Diphacinone,-9.815,OCHEM
CCNc1nc(Cl)nc(NC(C)(C)C)n1,Terbutylazine,-7.495,OCHEM
CCOC(=O)CCN(SN(C)C(=O)Oc1cccc2c1OC(C)(C)C2)C(C)C,n/a,-8.683,OCHEM
CCNc1nc(NC(C)(C)C)nc(SC)n1,Terbutryn,-7.83,OCHEM
COP(=S)(OC)Oc1c(Cl)cc(C)cc1Cl,Tolclofos-methyl,-5.438,OCHEM
CSC(C)=NOC(=O)N(C)SN(C)C(=O)ON=C(C)SC,Thiodicarb,-6.371,OCHEM
CCOc1ccccc1OS(=O)(=O)NC(=O)Nc1nc(OC)cc(OC)n1,Ethoxysulfuron,-7.718,OCHEM
CCOP(=S)(OCC)Oc1ccc(=O)n(-c2ccccc2)n1,Pyridaphenthion,-10.31,OCHEM
CC(C)=CC1C(C(=O)OCN2C(=O)C3=C(CCCC3)C2=O)C1(C)C (centres undefined),Tetramethrin,-5.773,OCHEM
O=C(NC(=O)c1c(F)cccc1F)Nc1cc(Cl)c(OC(F)(F)C(F)C(F)(F)F)cc1Cl (centres undefined),n/a,-6.473,OCHEM
C#CC(OC(=O)C1C(C=C(C)C)C1(C)C)/C(C)=C/CC (stereo partly drawn),Empenthrin,-3.466,OCHEM
CCCOP(=S)(OCCC)SCC(=O)N1CCCCC1C (centres undefined),Piperophos,-8.353,OCHEM
O=C1CCc2cccc3c2N1CC3,Pyroquilon,-10.16,OCHEM
CN(C(=O)COc1nc2ccccc2s1)c1ccccc1,Mefenacet,-9.327,OCHEM
CC(C)(C)C(O)/C(=C\c1ccc(Cl)cc1Cl)n1cncn1 (stereo partly drawn),Diniconazole,-6.404,OCHEM
CC(C)OC(=O)C(C(=O)OC(C)C)=C1SCCS1,Isoprothiolane,-6.006,OCHEM
O=C(NC(=O)c1c(F)cccc1F)Nc1ccc(Cl)c(Oc2ncc(C(F)(F)F)cc2Cl)c1,Fluazuron,-10.52,OCHEM
Cc1c(F)c(F)c(COC(=O)C2C(/C=C(\Cl)C(F)(F)F)C2(C)C)c(F)c1F (stereo partly drawn),Tefluthrin,-2.705,OCHEM
COCCN(C(=O)CCl)c1c(C)cccc1C,Dimethachlor,-8.775,OCHEM
CCOP(=S)(OCC)ON=C(C#N)c1ccccc1,Phoxim,-5.385,OCHEM
OC(Cn1cncn1)(c1ccc(F)cc1)c1ccccc1F (centres undefined),n/a,-10.9,OCHEM
O=C(NC(=O)c1ccccc1Cl)Nc1ccc(OC(F)(F)F)cc1,Triflumuron,-7.753,OCHEM
CCCN(CCC)C(=O)SCc1ccccc1,Prosulfocarb,-6.824,OCHEM
O=C1C(Cl)C(CCl)CN1c1cccc(C(F)(F)F)c1 (centres undefined),Flurochloridone,-7.626,OCHEM
NCP(=O)(O)O,Aminomethylphosphonic acid,-5.802,OCHEM

3 of these entries, quoted again:

{"smiles": "CCOP(=S)(OCC)Oc1ccc(=O)n(-c2ccccc2)n1", "name": "Pyridaphenthion", "log Henry constant (log10 atm·m3/mol)": "-10.31", "via": "OCHEM"}
{"smiles": "CC1(C)[C@H](C(=O)O[C@H](C#N)c2cccc(Oc3ccccc3)c2)[C@@H]1/C=C(\\Cl)C(F)(F)F", "log Henry constant (log10 atm·m3/mol)": "-6.705", "via": "OCHEM"}
{"smiles": "CCNc1nc(NC(C)(C)C)nc(SC)n1", "name": "Terbutryn", "log Henry constant (log10 atm·m3/mol)": "-7.83", "via": "OCHEM"}

Data: OPERA 2.9 data sets, kmansouri/OPERA on GitHub.